According to PubChem BioAssay AID645 (SRMLSC, 2007):
This is a selection; strong and weak results do not stand in their true shares. Calls of active or inactive are those of the source.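 The calls were made as follows: active = HER2 level under 5% of the carrier-only control; inconclusive = no clear call, values can overlap the other calls; inactive = the rest.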

Sequences of proteins named here, by UniProt entry; tags and fusion partners are left off.
UniProt P04626, whole entry: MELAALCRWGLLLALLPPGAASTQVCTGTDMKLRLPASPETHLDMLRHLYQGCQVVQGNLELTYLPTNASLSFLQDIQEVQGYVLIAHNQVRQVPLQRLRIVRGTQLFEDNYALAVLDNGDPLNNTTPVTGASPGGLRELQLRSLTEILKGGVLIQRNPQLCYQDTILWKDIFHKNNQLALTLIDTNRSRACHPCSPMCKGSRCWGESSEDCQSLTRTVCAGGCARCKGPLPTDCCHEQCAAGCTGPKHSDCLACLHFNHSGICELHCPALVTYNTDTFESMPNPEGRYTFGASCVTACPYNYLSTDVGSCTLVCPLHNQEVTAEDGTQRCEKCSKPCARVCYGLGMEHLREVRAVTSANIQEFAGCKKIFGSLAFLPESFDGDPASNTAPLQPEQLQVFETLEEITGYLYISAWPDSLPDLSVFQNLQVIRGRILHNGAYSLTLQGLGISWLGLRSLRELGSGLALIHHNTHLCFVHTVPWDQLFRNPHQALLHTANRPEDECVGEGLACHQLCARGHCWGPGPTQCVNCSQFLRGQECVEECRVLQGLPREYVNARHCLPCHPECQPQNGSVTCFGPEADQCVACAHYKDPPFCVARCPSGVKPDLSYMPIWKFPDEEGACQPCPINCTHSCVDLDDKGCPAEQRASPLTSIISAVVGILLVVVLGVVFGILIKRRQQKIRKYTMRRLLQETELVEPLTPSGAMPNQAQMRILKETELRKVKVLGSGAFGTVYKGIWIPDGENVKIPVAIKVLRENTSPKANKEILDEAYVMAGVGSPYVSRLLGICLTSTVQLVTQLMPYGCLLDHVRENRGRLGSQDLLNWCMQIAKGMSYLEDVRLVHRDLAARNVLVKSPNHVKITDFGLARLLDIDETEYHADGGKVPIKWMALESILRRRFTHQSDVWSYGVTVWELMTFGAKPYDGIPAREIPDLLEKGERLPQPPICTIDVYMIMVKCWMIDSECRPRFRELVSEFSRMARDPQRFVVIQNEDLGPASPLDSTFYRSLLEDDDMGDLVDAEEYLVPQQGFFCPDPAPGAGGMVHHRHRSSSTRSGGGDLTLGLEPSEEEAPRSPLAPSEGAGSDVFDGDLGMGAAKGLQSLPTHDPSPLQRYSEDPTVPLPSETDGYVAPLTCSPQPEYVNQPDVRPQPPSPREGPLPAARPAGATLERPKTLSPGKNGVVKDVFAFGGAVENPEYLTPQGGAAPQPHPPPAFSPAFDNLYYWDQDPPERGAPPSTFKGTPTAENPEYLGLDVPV

Target: Receptor tyrosine-protein kinase erbB-2 (Homo sapiens) (UniProt P04626)
Assay: inhibitors of Her2 protein expression, primary screen, SKBR-3 cells, AlphaScreen, 66K library (AID 645);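 also: 100% = DMSO carrier and 0% = 500 nM PU-H71 HSP90 inhibitor; lower value means stronger loss of Her2 protein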
Details: SKBR-3 HER2 protein level, 18-24 h, at 10 µM, hits give low values

**Q.** Which HER2 level % of control does the source give for `N#CC1(Nc2ccccc2)CCN(CCc2ccccc2)CC1` here?
**A.** Its HER2 level % of control is inactive: 84.9%.

**Q.** With `O=C(OC1CN2CCC1CC2)C1c2ccccc2Oc2ccccc21` (configuration not stated) as the compound, how does the HER2 level % of control read?
**A.** The HER2 level % of control was inactive: 117%.

**Q.** `COc1ccc(NC2CCN(CCc3ccccc3)CC2)c(OC)c1` was tested. Which HER2 level % of control did it give?
**A.** Its HER2 level % of control is inactive: 84.9%.

**Q.** `Fc1ccccc1NC1CCN(Cc2ccccc2)CC1` was tested. Which HER2 level % of control did it give?
**A.** Its HER2 level % of control is inactive: 68.7%.

**Q.** How did the HER2 level % of control turn out when `CCC(CO)(C(=O)OC1CN2CCC1CC2)c1ccccc1` (configuration not stated) was run?
**A.** The HER2 level % of control was inactive: 95%.

**Q.** `CCOc1ncccc1C(=O)NCC1(N2CCOCC2)CCCCC1` was tested. Which HER2 level % of control did it give?
**A.** Its HER2 level % of control is inactive: 88.1%.

**Q.** How did the HER2 level % of control turn out when `N/C(=N\O)c1c(N)no[n+]1[O-]` was run?
**A.** The HER2 level % of control was inactive: 110%.
